Screening data (PubChem BioAssay)
Hits are enriched below; roughly 2.2% of the tested compounds scored in any of these assays.
Nrf2 ARE act: activates Nrf2 signaling | AREc32 ARE-luciferase reporter (MCF7-derived line), luminescence, 24 h | Potency, µM (doses to about 46.1 µM), inactives show top-dose activation, hits mostly activators | 410,000 tested, 0.31% active; also: potency is read from the fitted curve at half-maximal effect; % of control where 0% means no effect; nearly all actives have a fitted effect of over 65% in size
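Nrf2 activation is followed as ARE-luciferase induction in the AREc32 line after one day of compound treatment; luminescence is read with Steady-Glo.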
Nrf2 inh: blocks Nrf2 signaling; AID 504444; A549 ARE-Fluc reporter, luciferase luminescence, 18-24 h; 360,000 tested, 2.1% active; Potency, µM (titrated, usually from 46 µM), inactives show top-dose activity change, negative = inhibition, most hits filed as inhibitors; also: potency is read from the fitted curve at half-maximal effect; % is scaled to controls: 0 for no effect and ±100 for the full control effect; nearly all actives have a fitted effect of over 60% in size
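Nrf2 function is reported as luminescence of an ARE-controlled luciferase in A549 cells. Compounds were tested at several concentrations, and a CellTiter-Fluor read on the same wells flagged cytotoxicity.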
B2AR arrestin: agonists driving beta-arrestin recruitment to human beta2-adrenergic receptor; AID 492947; Potency, µM (top dose mostly 46.1 µM), without a hit: at the top dose activation, usual class: activators; beta-arrestin recruitment to beta2AR, cell-based reporter; P07550; 330,000 tested, 0.02% active;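 also: potency is read from the fitted curve at half-maximal effect; 0% = DMSO controls and full agonism = EC100 isoproterenol or metaproterenol; nearly all actives have a fitted effect of over 65% in size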
miR-21 reporter: raises the signal of a miR-21 reporter | HeLa miR-21 FLuc reporter, luciferase, 48 h | Potency, µM (highest dose often 38.3 µM), without a hit: at the top dose reporter change, positive = more light | 340,000 tested, under 10 active; active = well fitted rising curve with a large enough effect; inconclusive = small, poorly fitted or top-dose-only effect; inactive = no such curve, though single readings can be large or run the other way;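 note: % of control where 0% means no effect; miR-21 action dims this reporter so a rising signal means less miR-21 action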
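HeLa miR-21-FLuc reporter line, endogenous miR-21; 2000 cells/well in DMEM/10% FBS; compound titration up to ~40uM final, 48 h, 37 degree Celsius; luciferase detection reagent, 15 min lysis, CCD luminescence.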
A549 viability: A549 cytotoxicity, counter-screen for Nrf2 inhibitors; A549 ARE-Fluc cells, CellTiter-Fluor viability, 18-24 h; Potency, µM (highest dose often 46 µM), without a hit: at the top dose activity change, negative = cytotoxicity, actives largely listed as inhibitors; 390,000 tested, 0.16% active; also: potency is read from the fitted curve at half-maximal effect; % is scaled to controls: 0 for no effect and ±100 for the full control effect
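A549 ARE-Fluc cells in 5% FBS OPTI-MEM, 5000 cells/well, rested 2 h then exposed to compounds in concentration-response for 18-24 h at 37 °C. Viability by CellTiter-Fluor fluorescence (Ex 405/Em 525) after 30 min; luciferase luminescence (BugLite, 15 min, RT) read afterwards.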
* hit, by the source's call; ? = inconclusive; · = no result given. Unless noted, calls follow the shape of the dose curve; as a rule, active = well fitted curve in the direction sought with a large enough effect; inconclusive = small, poorly fitted or top-dose-only effect, or another doubt; inactive = no such curve, though single readings can be large; an effect the other way counts as inactive or inconclusive.

SMILES | Nrf2 ARE act | Nrf2 inh | B2AR arrestin | miR-21 reporter | A549 viability
COc1ccc(-c2cc(C3C4C=CCCC4(C)C(=O)N3Cc3ccccc3)ccc2F)cc1OC (stereo unspecified) | · | ? | · | · | 3%
Clc1ccc(-c2nnc(CSc3nnc(-c4cccs4)n3Cc3ccccc3)o2)cc1 | 7% | 21µM* | 3% | 20% | -11%
Cc1cc(Br)ccc1NC(=O)CSc1c2c(nc3ccccc13)CCC2 | 3% | -16% | · | 14% | -11%
CN1CCc2nc(NC(=O)c3cccc(S(=O)(=O)N4CCc5ccccc54)c3)sc2C1 | 0% | -10% | 0% | 1% | 5%
CCc1ccccc1NC(=O)c1cc(S(=O)(=O)N2CCc3ccccc32)cn1C | -1% | -14% | 0% | -2% | -4%
O=C(Nc1nc2c(s1)CCCC2)c1cccc(S(=O)(=O)N2CCCc3ccccc32)c1 | 4% | 21µM* | -4% | 15% | 1%
CCC(CC)c1nnc(NC(=O)c2cccc(S(=O)(=O)N3CCc4ccccc43)c2)s1 | 0% | 21µM* | 0% | 9% | -3%
O=C(NC(=S)Nc1nc2c(s1)CCCC2)c1ccccc1 | 2.5µM* | ? | 0% | -53% | -12%
CCCNC(=O)c1cc(S(=O)(=O)N2CCc3ccccc32)cn1C | 0% | 12µM* | 1% | 17% | -12%
Cc1ccc2c(c1)C(=O)OC(C(=O)Nc1ccccc1C(=O)O)C2 (stereo unspecified) | 0% | · | · | -6% | 3%
O=C1CCc2cc(S(=O)(=O)Nc3ccc4ccccc4c3)ccc2N1 | · | ? | · | · | 7%
O=C(c1ccco1)N(Cc1ccc(Cl)cc1)C1CCS(=O)(=O)C1 (stereo unspecified) | 1% | 26µM* | 0% | -1% | -1%
CCc1ccc(CN(C(=O)c2ccco2)C2CCS(=O)(=O)C2)cc1 (stereo unspecified) | 0% | -23% | 0% | -2% | -1%
Cc1cc(-c2ccc(C)c(S(=O)(=O)N3CCC(C)CC3)c2)on1 | -1% | ? | · | 11% | 13%
Cc1cccc(N2CCN(S(=O)(=O)c3cc(-c4cc(C)no4)ccc3C)CC2C)c1 (stereo unspecified) | 0% | 7.3µM* | 0% | 25% | -12%
Cc1cc(-c2ccc(C)c(S(=O)(=O)N3CCN(c4ccc(F)cc4)CC3)c2)on1 | 0% | 8.2µM* | 0% | 0% | -6%
COc1ccc(-c2cc(C)no2)cc1S(=O)(=O)N1CCN(c2cccc(C)c2)C(C)C1 (stereo unspecified) | 0% | ? | -1% | 26% | -5%
CCOc1ccccc1NC(=O)Cn1c(=O)ccc2cc(S(=O)(=O)N3CCCC3)ccc21 | -1% | · | · | 1% | -1%
COc1ccc(C(=O)/C=C2\Sc3ccccc3N2C)cc1 | 4% | ? | 0% | -35% | -12%
COc1ccc(-[n+]2c(C)cc(/C=C3\Sc4ccccc4N3C)cc2C)cc1 | -2% | 0.23µM* | 3% | ? | 9.2µM*

One compound at a time (already shown).
Profile of O=C(NC(=S)Nc1nc2c(s1)CCCC2)c1ccccc1 = Nrf2 ARE act = 2.5µM*; Nrf2 inh = ?; B2AR arrestin = 0%; miR-21 reporter = -53%; A549 viability = -12%
Profile of CCOc1ccccc1NC(=O)Cn1c(=O)ccc2cc(S(=O)(=O)N3CCCC3)ccc21 = Nrf2 ARE act = -1%; Nrf2 inh = ·; B2AR arrestin = ·; miR-21 reporter = 1%; A549 viability = -1%

(listing goes on)
SMILES | Nrf2 ARE act | Nrf2 inh | B2AR arrestin | miR-21 reporter | A549 viability
Nc1c(Br)cc(Br)c2cccnc12 | · | 0% | · | · | 0%
Cn1nnnc1Sc1ncnc2scc(-c3ccc([N+](=O)[O-])cc3)c12 | ? | 18µM* | 0% | · | ?
CC(=O)c1ccc(-c2csc3ncnc(Sc4nnnn4C)c23)cc1 | · | ? | · | · | -2%
Cn1nnnc1Sc1ncnc2scc(-c3ccc4c(=O)ccoc4c3)c12 | · | 16µM* | · | · | ?
Cn1nnnc1Sc1ncnc2scc(-c3cccc(Br)c3)c12 | 12% | 23µM* | 0% | · | -26%
Cn1nnnc1Sc1ncnc2scc(-c3cccc(S(C)(=O)=O)c3)c12 | -2% | 8.2µM* | -2% | · | ?
Cc1ccc(CNC(=O)c2ccc(CSCc3ccccc3C)o2)cc1 | 0% | · | · | -2% | 12%
CN(Cc1ccco1)C(=O)c1ccc2c(c1)N(Cc1ccccc1F)C(=O)c1ccccc1S2 | 0% | · | · | -2% | -28%
CCOC(=O)c1ccc2c(c1)N(Cc1cccc(C(F)(F)F)c1)C(=O)c1ccccc1S2(=O)=O | -1% | -3% | · | 18% | -5%
CCc1nn2c(=O)cc(COC(=O)c3cccc(NC(=O)COc4ccccc4F)c3)nc2s1 | -1% | · | · | 8% | 6%
Cn1nnnc1Sc1ncnc2scc(-c3ccccc3Cl)c12 | -2% | 26µM* | -3% | · | -4%
Cc1sc2ncnc(Sc3ccccc3C(=O)O)c2c1C | 10% | ? | 0% | -4% | -6%
Cc1sc2ncnc(Sc3nnnn3-c3ccccc3)c2c1C | 8.9µM* | ? | -1% | ? | 2%
Cn1nnnc1Sc1ncnc2scc(-c3ccc(Cl)cc3)c12 | -2% | ? | 0% | · | ?
Cc1nc2c(C(=O)NCc3ccccc3Cl)c[nH]n2c(=O)c1Cc1cccc(Cl)c1 | 1% | -24% | · | 24% | -10%
CC(CNC(=O)c1cc(COc2ccc3ncccc3c2)on1)c1ccccc1 (stereo unspecified) | 2% | 15µM* | 0% | 14% | -16%
O=C(c1cc(COc2ccc3ncccc3c2)on1)N1CCCC(O)C1 (stereo unspecified) | 3% | ? | 0% | 3% | -7%
CCOC(=O)N1CCN(C(=O)c2cc(COc3cccc(C(C)=O)c3)on2)CC1 | 7% | ? | 0% | -17% | 0%
CCOC(=O)N1CCN(C(=O)c2cc(COc3ccc4ncccc4c3)on2)CC1 | 3% | 18µM* | 0% | ? | -13%
COCC1CCCN(C(=O)c2cc(COc3ccc4ncccc4c3)on2)C1 (stereo unspecified) | 0% | 8.2µM* | 0% | 0% | -18%

Some of these compounds in order of the B2AR arrestin value, highest first:
mol | Nrf2 ARE act | B2AR arrestin | miR-21 reporter
CCOC(=O)N1CCN(C(=O)c2cc(COc3ccc4ncccc4c3)on2)CC1 | 3% | 0% | ?
Cc1sc2ncnc(Sc3nnnn3-c3ccccc3)c2c1C | 8.9µM* | -1% | ?
Cn1nnnc1Sc1ncnc2scc(-c3ccccc3Cl)c12 | -2% | -3% | ·

Remaining list, next part
SMILES | Nrf2 ARE act | Nrf2 inh | B2AR arrestin | miR-21 reporter | A549 viability
CN(Cc1nccn1C)C(=O)c1cc(COc2ccc3ncccc3c2)on1 | 0% | 21µM* | 0% | 11% | -7%
CN(Cc1nccn1C)C(=O)c1cc(COc2cccc(C(F)(F)F)c2)on1 | 4% | -6% | 0% | -18% | ?
COc1ccc(NC(=O)c2oc3ccccc3c2NC(=O)Cc2coc3cc(C)ccc23)cc1 | 3% | -4% | · | -17% | -3%
Cc1cc2c(cc1S(=O)(=O)Nc1cccc(Cl)c1C)OCCN2C | 0% | -14% | · | -6% | -1%
O=C(c1cc(COc2ccc3ncccc3c2)on1)N1CCC[C@H]1CO | 2% | 9.2µM* | 4% | 0% | -20%
COCCC1CCCCN1C(=O)c1cc(COc2ccc(C)nc2)on1 (stereo unspecified) | 0% | ? | 12% | 3% | -7%
CC(C)(C)OC(=O)Cc1nnc(CNC(=O)c2ccccc2)s1 | · | -12% | · | · | 1%
Cc1cc(C)nc(NC(=O)/C=C/c2ccccc2Cl)c1 | ? | 5% | 0% | -65% | -2%
Cc1cc(C)nc(NC(=O)/C=C/c2ccccc2Cl)n1 | 8.9µM* | · | 1% | -38% | -6%
O=C(CNC(=O)C1CCCCC1)OCCOc1ccccc1 | · | 7% | · | · | 1%
